The values that follow are results of earlier work, collected in patent US10117862B2.

Some compounds may have been tested in ways that are not shown here.

The conditions of data set [1]: metabolized in a liver into active and nonactive metabolites.
The conditions of data set [2]: long-term storage.

For the compound `CCC(=O)N(c1ccccc1)C1CCN(CCc2ccccc2)CC1`, the “Share of metabolites discharged from a kidney” value in data set [1] is 10%. For `CCC(=O)N(c1ccccc1)C1(C(=O)OC)CCN(CCC(=O)OC)CC1`, the “Stability of aqueous solution” value in data set [2] was “unstable”.
